The record followed here is publication PMC9304032 (Proceedings of the National Academy of Sciences of the …, 2022).

The target in the assay is T1, glucocerebrosidase (GCase) (Homo sapiens, UniProt P04062).
T1 sequence (P04062 40-536): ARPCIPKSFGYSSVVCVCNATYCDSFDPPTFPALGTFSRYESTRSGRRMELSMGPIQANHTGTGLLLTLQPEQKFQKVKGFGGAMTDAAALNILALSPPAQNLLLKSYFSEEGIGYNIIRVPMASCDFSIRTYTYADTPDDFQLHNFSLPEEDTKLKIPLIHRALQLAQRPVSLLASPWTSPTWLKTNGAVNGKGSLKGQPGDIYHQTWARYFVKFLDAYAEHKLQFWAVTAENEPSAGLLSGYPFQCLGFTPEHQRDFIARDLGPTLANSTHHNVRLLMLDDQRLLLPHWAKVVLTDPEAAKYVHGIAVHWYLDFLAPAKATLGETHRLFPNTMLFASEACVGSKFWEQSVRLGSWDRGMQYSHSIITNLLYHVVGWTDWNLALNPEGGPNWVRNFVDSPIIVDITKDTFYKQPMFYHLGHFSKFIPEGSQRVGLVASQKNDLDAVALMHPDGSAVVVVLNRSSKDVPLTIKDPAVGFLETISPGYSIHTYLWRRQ
The assay is described as follows: live-cell target engagement, inhibition of LysoFQ-GBA turnover. Format: cell-based.

What is called IC50 is the concentration at which inhibition is half-maximal. High values mean lower potency, low ones higher potency.

As for `O[C@H]1[C@H](O)CNC[C@@H]1C(F)F` [AT3375], the IC50 is 170 nM.
